Patent US5292729A, “II-bond aromatic vitamin chelates” (Albion International, Inc., priority 1992, dated 1994)

Experiment: 65Zn level in blood of rats after oral gavage, scintillation count
Details: 2.0 hrs after dosing; oral 0.03 mg Zn, 15 μcuries 65Zn; mean ± standard deviation
Method: The chelate thus prepared was diluted such that a 5 μl dose contained about 0.03 mg Zn and 15 μcuries of ^65 Zn activity. This dose, when administered to a standard laboratory rat weighing 150±25 gms, closely approximates the RDA of 15 mg Zn for a human being weighing about 70 kg.
Ten Sprague Dawley rats, weighing 190±10 grams each were divided into two groups of five rats. Five rats were designated the test group and the other five rats the control group.
No surgery was performed as all animals were given light doses of nembutal (40 mg/kg) to improve ease of handling and minimize injury during lavage and bloodletting.
Beginning 30 minutes after dosing and continuing at 30 minute intervals up to a period of 3 hours following dosing, 0.1 ml of blood was withdrawn from rats in both the test and control groups. The blood was then analyzed for ^65 Zn by scintillation count.

`[Cl-].[Cl-].[Zn+2]` [ZnCl2] gave a 65Zn in blood of 227 ± 18 CCPM.
